Assay results published in US7211600B2, “Methods of modulating c-kit tyrosine protein kinase function with indolinone compounds” (Sugen Inc., priority 1999, dated 2007).

System: MO7E cells
Test: cells
Settings: Homo sapiens, 48 h, read-out: IC50 value for inhibition of proliferation
Method: MO7E cells, a human myeloid leukemia cell line, were maintained in RPMI-1640 medium supplemented with 10% fetal calf serum and 10 ng/ml each IL-3 and GM-CSF.

Q: For Cc1cc(C)c(/C=C2\C(=O)Nc3ccccc32)[nH]1 [Compound Eight], which IC50 is on record?
A: The IC50 was 500 to 1000 nM.
